Results published in PMC9423820, “Melittin-derived peptides exhibit variations in cytotoxicity and antioxidant, anti-inflammatory and allergenic activities” (Animal Cells and Systems, 2022).

System: HeLa cells
Assay: MTS cell viability assay (CellTiter 96 Aqueous One), HeLa
Assay type: cell-based, human
Conditions: 2.5 μM, 24 h, n = 3
Description: Human pulmonary bronchial epithelial BEAS-2B, human epithelial cervix carcinoma HeLa, murine macrophage RAW 264.7, and rat basophilic leukemia mast RBL-2H3 cells were purchased from American Type Culture Collection (ATCC, VA, USA). BEAS-2B cells were maintained in bronchial epithelial basal medium (BEBM; Lonza, Basel, Switzerland). HeLa, RAW 264.7, and RBL-2H3 cells were maintained in DMEM supplemented with 10% heat-inactivated fetal bovine serum (Welgene, Gyeongsangbuk-do, Korea) and 1% penicillin and streptomycin (Welgene) at 37 °C in a humidified atmosphere of 5% CO2. Melittin and its derived peptides (Figure 1A) were synthesized by Peptron, Inc. (Daejeon, Korea).
The effect of melittin and melittin-derived peptides on cell viability was evaluated using the CellTiter 96^R Aqueous One Solution Cell Proliferation Assay (Promega, Madison, WI, USA), according to the manufacturer’s instructions (Cambronero-Urena et al. [2021]). BEAS-2B and HeLa cells were seeded (3,000 cells/well) in 96-well plates and incubated for 24 h. […] Thereafter, 20 μL of MTS reagent was added, and absorbance was measured at 490 nm using a microplate reader (Molecular Devices EMax Plus). The formula used to calculate the cell viability is as follows: Cell viability (%)={(A Sample−A [Blank]) / (A [Control])−A [Blank])}×100, Where A is the absorbance for a given wavelength.

CC[C@H](C)[C@H](NC(=O)CN)C(=O)NCC(=O)N[C@@H](C)C(=O)N[C@H](C(=O)N[C@@H](CC(C)C)C(=O)N[C@@H](CCCCN)C(=O)N[C@H](C(=O)N[C@@H](CC(C)C)C(=O)N[C@H](C(=O)N[C@H](C(=O)NCC(=O)N[C@@H](CC(C)C)C(=O)N1CCC[C@H]1C(=O)N[C@@H](C)C(=O)N[C@@H](CC(C)C)C(=O)N[C@H](C(=O)N[C@@H](CO)C(=O)N[C@@H](Cc1c[nH]c2ccccc12)C(=O)N[C@H](C(=O)N[C@@H](CCCCN)C(=O)N[C@@H](CCCNC(=N)N)C(=O)N[C@@H](CCCCN)C(=O)N[C@@H](CCCNC(=N)N)C(=O)N[C@@H](CCC(N)=O)C(=O)N[C@@H](CCC(N)=O)C(N)=O)[C@@H](C)CC)[C@@H](C)CC)[C@@H](C)O)[C@@H](C)O)C(C)C)C(C)C [Melittin]
cellular activity (cell viability): 60%
